Results taken from patent EP2061765B1, “Serine-threonine protein kinase and PARP modulators” (Senhwa Biosciences, Inc., priority 2006, dated 2008).

By UniProt entry, the sequences of proteins in these tests, tags left out.
UniProt P68400, whole entry: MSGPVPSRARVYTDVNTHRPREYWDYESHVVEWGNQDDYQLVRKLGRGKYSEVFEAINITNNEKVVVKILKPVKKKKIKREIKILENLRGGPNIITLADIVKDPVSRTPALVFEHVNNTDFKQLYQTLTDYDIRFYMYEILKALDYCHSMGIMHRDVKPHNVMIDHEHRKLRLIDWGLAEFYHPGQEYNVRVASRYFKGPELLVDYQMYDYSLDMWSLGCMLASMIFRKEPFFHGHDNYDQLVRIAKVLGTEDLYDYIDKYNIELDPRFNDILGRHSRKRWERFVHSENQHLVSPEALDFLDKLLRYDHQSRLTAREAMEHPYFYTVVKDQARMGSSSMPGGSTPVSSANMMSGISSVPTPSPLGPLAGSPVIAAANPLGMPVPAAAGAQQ

molecular target: T1, recombinant human CK2 (Homo sapiens, UniProt P68400); experiment: CK2 Assay (cell-free, radiometric); type: biochemical; conditions: 15uM ATP
T1 construct: purchased Upstate

IC50	SMILES
> 0.5 µM	COC(=O)c1ccc2c(c1)nc(Nc1ccccc1)c1nc(SC)ncc12 [drawing 221]
> 0.5 µM	COC(=O)c1ccc2c(c1)nc(Nc1ccccc1)c1nc(S(C)(=O)=O)ncc12 [drawing 222]
> 0.5 µM	CNc1ncc2c(n1)c(Nc1ccccc1)nc1cc(C(=O)OC)ccc12 [drawing 223]
> 0.75 µM	C#Cc1cccc(Nc2nc3cc(C(=O)OC)ccc3c3cnc(NOC)nc23)c1 [drawing 260]
> 0.75 µM	COC(=O)c1ccc2c(c1)nc(Nc1cccc(Cl)c1)c1nc(NCCC(N)=O)ncc12 [drawing 261]

The remaining lines, values behind:

SMILES	IC50
COC(=O)c1ccc2c(c1)nc(NC1CC1)c1nc(SCc3ccccc3Cl)ncc12	> 0.75 µM
CC(=O)Nc1ccc2c(c1)nc(Nc1cccc(C(F)(F)F)c1)c1nc(NC3CC3)ncc12	> 0.75 µM
COC(=O)c1ccc2c(c1)nc(Nc1cccc(Cl)c1)c1ccncc12 [drawing 220]	> 0.5 µM
CCOc1ncc2c(n1)c(Nc1cccc(C(F)(F)F)c1)nc1cc(C(=O)O)ccc12 [drawing 244]	> 0.75 µM
CN(C)c1ncc2c(n1)c(Nc1cccc(Cl)c1)nc1cc(C(=O)O)ccc12 [drawing 246]	> 0.75 µM
NC(=O)c1ccc2c(c1)nc(Nc1cccc(C(F)(F)F)c1)c1nc(NC3CC3)ncc12 [drawing 273]	> 0.75 µM
O=C(NC1CC1)c1ccc2c(c1)nc(Nc1cccc(C(F)(F)F)c1)c1nc(NC3CC3)ncc12 [drawing 274]	> 0.75 µM
CNC(=O)c1ccc2c(c1)nc(Nc1cccc(C(F)(F)F)c1)c1nc(NC3CC3)ncc12 [drawing 275]	> 0.75 µM
CC(C)OC(=O)Nc1ccc2c(c1)nc(Nc1cccc(C(F)(F)F)c1)c1nc(NC3CC3)ncc12 [drawing 280]	> 0.75 µM
